These results are taken from ChEMBL document CHEMBL6134892, “Discovery and Evaluation of DA-302168S as an Efficacious Oral Small-Molecule Glucagon-Like Peptide-1 Receptor Agonist” (J Med Chem, 2025).

By UniProt entry, the sequences of proteins in these tests, tags left out.
UniProt P47871, whole entry: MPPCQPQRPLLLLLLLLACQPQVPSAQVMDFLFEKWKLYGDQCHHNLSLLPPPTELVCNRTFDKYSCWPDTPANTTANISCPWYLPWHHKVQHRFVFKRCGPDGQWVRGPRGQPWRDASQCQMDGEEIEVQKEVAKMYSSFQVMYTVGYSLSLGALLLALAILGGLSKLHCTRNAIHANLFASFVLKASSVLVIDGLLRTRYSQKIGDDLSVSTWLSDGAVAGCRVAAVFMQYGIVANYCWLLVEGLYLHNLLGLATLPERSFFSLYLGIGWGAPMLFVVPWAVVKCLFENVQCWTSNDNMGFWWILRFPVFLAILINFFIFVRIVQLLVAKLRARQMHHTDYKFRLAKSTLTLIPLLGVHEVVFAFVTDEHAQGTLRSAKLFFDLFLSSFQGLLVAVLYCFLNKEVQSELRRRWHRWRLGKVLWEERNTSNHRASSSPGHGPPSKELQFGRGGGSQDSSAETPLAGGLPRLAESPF
UniProt P43220, whole entry: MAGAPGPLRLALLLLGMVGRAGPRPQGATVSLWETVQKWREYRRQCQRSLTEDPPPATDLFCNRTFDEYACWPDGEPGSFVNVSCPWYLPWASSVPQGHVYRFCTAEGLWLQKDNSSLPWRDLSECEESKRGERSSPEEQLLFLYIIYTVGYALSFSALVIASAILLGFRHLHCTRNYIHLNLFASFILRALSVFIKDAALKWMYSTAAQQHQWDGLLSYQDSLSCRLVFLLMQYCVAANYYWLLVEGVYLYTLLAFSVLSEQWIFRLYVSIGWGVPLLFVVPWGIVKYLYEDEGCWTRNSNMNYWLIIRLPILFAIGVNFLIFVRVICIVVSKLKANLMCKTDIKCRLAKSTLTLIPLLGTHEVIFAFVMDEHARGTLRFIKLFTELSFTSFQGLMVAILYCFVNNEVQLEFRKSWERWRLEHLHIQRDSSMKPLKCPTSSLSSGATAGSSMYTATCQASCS

In test [1] the test system is Cynomolgus monkey. The test is described as follows: Hypoglycemic activity in cynomolgus monkey assessed as increase in insulin secretion at 3 mg/kg, po administered 2 hrs prior to glucose challenge measured within 60 mins by IVGTT. It counts as functional, organism-based. The following applies: Macaca fascicularis, time 180.0 min.
In test [2] the test system is HEK293. The test is described as follows: Agonist activity at cynomolgus monkey GLP-1R expressed in HEK293 cells assessed as maximum efficacy by cAMP accumulation assay relative to control. The test is classed as cell-based. The conditions noted are these: Macaca fascicularis, filed as agonist. (In general: Changes in cAMP serve as a functional read-out for many G protein-coupled receptors.)

The test system of test [3] is Mus musculus. Kind of test: Anti-obesity activity in hGLP-1R male transgenic mouse assessed as decrease in food uptake at 3 mg/kg administered orally and measured for 24 hrs. The test is classed as functional, organism-based. The conditions noted are these: route po.
In test [4] the test system is Mus musculus. Kind of test: Hypoglycemic activity in hGLP-1R male transgenic mouse assessed as increase in insulin secretion at 0.3 mg/kg, po administered 1 hrs prior to glucose challenge measured up to 120 mins by IPGTT. The test is classed as functional, organism-based. The conditions noted are these: time <= 180.0 min.
The target of test [5] is T1, Glucagon-like peptide 1 receptor (Mus musculus) (UniProt O35659).
T1 sequence (whole entry): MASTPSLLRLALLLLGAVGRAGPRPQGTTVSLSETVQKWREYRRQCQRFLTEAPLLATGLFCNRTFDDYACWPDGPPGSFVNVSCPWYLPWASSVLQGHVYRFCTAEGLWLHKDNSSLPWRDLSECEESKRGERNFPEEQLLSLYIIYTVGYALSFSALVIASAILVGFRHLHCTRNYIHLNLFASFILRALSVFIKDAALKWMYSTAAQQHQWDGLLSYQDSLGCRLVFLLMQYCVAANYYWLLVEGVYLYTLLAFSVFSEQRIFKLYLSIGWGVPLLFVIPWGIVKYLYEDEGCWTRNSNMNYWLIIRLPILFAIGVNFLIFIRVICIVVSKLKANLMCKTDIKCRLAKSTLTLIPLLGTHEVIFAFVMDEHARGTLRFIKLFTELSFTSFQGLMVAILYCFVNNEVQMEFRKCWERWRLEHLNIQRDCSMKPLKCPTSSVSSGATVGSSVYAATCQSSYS
The test is described as follows: Agonist activity at mouse GLP-1R expressed in HEK293 cells assessed as maximum efficacy by cAMP accumulation assay relative to control. It counts as functional, cell-based.

The subject of test [6] is Mus musculus. The test is described as follows: Anti-obesity activity in hGLP-1R male transgenic mouse assessed as decrease in food consumption administered orally and measured for 24 hrs. The test is classed as functional, organism-based. The conditions noted are these: dose 1-10 mg/kg, route po.
Test [7] deals with HEK293. Kind of test: Agonist activity at dog GLP-1R expressed in HEK293 cells assessed as maximum efficacy by cAMP accumulation assay relative to control. The following applies: Canis lupus familiaris. The test is classed as cell-based.
The target of test [8] is T2, Gastric inhibitory polypeptide receptor (Homo sapiens) (UniProt P48546).
T2 sequence (whole entry): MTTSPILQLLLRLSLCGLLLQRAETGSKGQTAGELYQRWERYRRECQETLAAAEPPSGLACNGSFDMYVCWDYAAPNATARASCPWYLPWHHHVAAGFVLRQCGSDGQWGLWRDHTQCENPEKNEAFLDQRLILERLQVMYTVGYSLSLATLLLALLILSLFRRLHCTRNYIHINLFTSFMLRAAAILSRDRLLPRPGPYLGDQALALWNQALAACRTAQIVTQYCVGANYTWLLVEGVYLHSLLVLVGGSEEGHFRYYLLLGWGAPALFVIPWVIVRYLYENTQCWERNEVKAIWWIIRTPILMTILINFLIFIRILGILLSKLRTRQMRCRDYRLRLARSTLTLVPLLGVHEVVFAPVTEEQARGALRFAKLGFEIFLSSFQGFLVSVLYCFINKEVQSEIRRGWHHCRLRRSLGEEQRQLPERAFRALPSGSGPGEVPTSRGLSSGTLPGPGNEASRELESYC
The test is described as follows: Activation of human GIP receptor expressed in HEK293 cells by cAMP accumulation assay. The test is classed as functional, cell-based.

For test [9], the system named is Mus musculus. The test is described as follows: Hypoglycemic activity in hGLP-1R male transgenic mouse assessed as reduction in blood glucose level at 0.1 mg/kg, po administered 1 hrs prior to glucose challenge measured up to 120 mins by IPGTT. The test is classed as functional, organism-based. The following applies: time <= 180.0 min.
The target in test [10] is T3, Glucagon-like peptide 1 receptor (Rattus norvegicus) (UniProt P32301).
T3 sequence (whole entry): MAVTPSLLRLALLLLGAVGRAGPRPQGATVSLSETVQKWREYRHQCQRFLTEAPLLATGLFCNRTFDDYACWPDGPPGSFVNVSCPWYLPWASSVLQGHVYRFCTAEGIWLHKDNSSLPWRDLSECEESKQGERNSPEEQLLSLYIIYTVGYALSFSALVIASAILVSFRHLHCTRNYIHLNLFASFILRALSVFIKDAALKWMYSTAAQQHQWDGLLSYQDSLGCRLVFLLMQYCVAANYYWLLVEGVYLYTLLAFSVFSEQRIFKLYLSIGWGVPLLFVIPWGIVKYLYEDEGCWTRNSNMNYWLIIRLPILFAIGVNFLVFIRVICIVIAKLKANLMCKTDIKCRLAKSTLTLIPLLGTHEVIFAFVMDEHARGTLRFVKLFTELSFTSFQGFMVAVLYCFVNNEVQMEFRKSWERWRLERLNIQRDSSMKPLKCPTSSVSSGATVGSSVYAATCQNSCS
The test is described as follows: Agonist activity at rat GLP-1R expressed in HEK293 cells assessed as maximum efficacy by cAMP accumulation assay relative to control. It counts as functional, cell-based.

In test [11] the test system is Mus musculus. The test is described as follows: Hypoglycemic activity in hGLP-1R male transgenic mouse assessed as reduction in blood glucose level at 0.025 to 1 mg/kg, po administered 1 hrs prior to glucose challenge measured up to 120 mins by IPGTT. The test is classed as functional, organism-based. The following applies: dose 0.025-1 mg/kg, time <= 180.0 min.
Test [12] deals with T4, Glucagon-like peptide 2 receptor (Homo sapiens) (UniProt O95838).
T4 sequence (whole entry): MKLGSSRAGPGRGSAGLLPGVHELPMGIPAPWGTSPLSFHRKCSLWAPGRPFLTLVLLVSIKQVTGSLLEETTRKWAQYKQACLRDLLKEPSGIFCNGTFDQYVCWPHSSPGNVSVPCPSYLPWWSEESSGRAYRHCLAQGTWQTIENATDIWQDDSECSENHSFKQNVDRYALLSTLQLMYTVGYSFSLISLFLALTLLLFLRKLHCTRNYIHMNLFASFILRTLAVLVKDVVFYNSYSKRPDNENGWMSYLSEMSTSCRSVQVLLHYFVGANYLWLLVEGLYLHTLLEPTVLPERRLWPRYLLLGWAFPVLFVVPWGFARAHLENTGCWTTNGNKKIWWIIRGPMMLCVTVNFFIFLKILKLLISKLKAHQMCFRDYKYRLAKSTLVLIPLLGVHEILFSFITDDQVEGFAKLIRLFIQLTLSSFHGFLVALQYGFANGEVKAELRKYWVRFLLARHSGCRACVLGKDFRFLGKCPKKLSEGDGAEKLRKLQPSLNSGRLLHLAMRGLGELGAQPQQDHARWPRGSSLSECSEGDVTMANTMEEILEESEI
The test is described as follows: Activation of human GLP-2R expressed in HEK293 cells by cAMP accumulation assay. The test is classed as functional, cell-based.

The target in test [13] is Glucagon receptor (Homo sapiens) (UniProt P47871). The test is described as follows: Activation of human GCGR expressed in HEK293 cells by cAMP accumulation assay. The test is classed as functional, cell-based.
The target of test [14] is Glucagon-like peptide 1 receptor (Homo sapiens, UniProt P43220). Kind of test: Agonist activity at human GLP-1R expressed in HEK293 cells assessed as maximum efficacy by cAMP accumulation assay relative to control. It counts as functional, cell-based. The following applies: filed as agonist.
Test [15] relates to Cynomolgus monkey. The test is described as follows: Hypoglycemic activity in po dosed cynomolgus monkey assessed as reduction in blood glucose level administered 2 hrs prior to glucose challenge measured within 60 mins by IVGTT. The following applies: Macaca fascicularis, dose 3-10 mg/kg, time 180.0 min. The test is classed as functional, organism-based.

The source made the active and inactive calls. No cut-off for these calls is given here.

For orientation: Emax means the maximal effect, on the per cent scale that the assay sets.

Consider `O=C(O)c1ccc2nc(Cc3ccc(-c4ccc(F)c(OCc5ccc(Cl)c6ccoc56)n4)cc3F)n(C[C@@H]3CCO3)c2c1`, for which the outcome in the test on Cynomolgus monkey [1], with Mus musculus [4] and in the test on Mus musculus [11] was Active. The Emax in the test on HEK293 [2] came out at 99.9%; in [5], 1.77%; in the test with HEK293 [7] it was 2.34%; in test [10], 22.6%; in test [14], 101%. For the same compound, the Activity result is “Active; Compound Showed Significant Reduction In Food Uptake Than Danuglipron” in the test on Mus musculus [3], “Dose-dependent-effect” in the test on Mus musculus [6], “Active; Compound Showed Superior Activity Than Danuglipron” in the test with Mus musculus [9] and “Dose-dependent-effect” in the test with Cynomolgus monkey [15]. Further, the outcome in [8], in [12] and in test [13] was inactive.
